This data set in a line: Serum biochemical detection at 8 weeks after radiotherapy. As to conditions: SD rats, 8 weeks after submandibular gland irradiation.

sodium nitrate displayed a Cl (high dose 40.5 mM in drinking water) of 104.16 ± 1.15 mmol/L and a Cl (low dose 20.25 mM in drinking water) of 104.54 ± 1.23 mmol/L.

Values taken from patent US20250228785A1, “MICROCAPSULE, PREPARATION METHOD THEREFOR, AND USE THEREOF IN PREVENTING AND/OR TREATING DAMAGE TO SALIVARY GLANDS CAUSED BY RADIATION THERAPY” (CAPITAL MEDICAL UNIVERSITY, priority 2021, published 2025).
